How the values were obtained:
[1] = Ability to inhibit corrosion by polarization resistance (Rp), iron electrodes; conditions: for Rp: iron electrode, sodium salt
[2] = Ability to inhibit corrosion by polarization resistance (Rp), low-carbon steel electrodes (X65); conditions: Electrode X65
[3] = Electrode Fe, S group 14.2 μmole/liter, PEI 10 ppm
[4] = S group 14.2 μmole/liter, PEI 10 ppm

Structure (SMILES)	Rp After 20 min. [1, 3]	Rp After 15 hrs [1, 3]	Rp Peak [1, 3]	Rp ([1]; after the elapse of 20 minutes)	Rp ([1]; after the elapse of 15 hours)	Rp ([1]; peak)	Rp After 20 min. [2, 4]	Rp Peak [2, 4]	Rp After 20 hours ([2]; footnote **: After 20 hours)	Rp After 25 minutes ([1]; Electrode Fe, footnote *: After 25 minutes)	Rp ([1]; after the elapse of 25 minutes)
CC1(C)SCCN1C(=O)c1ccccc1C(=O)O [Example 1, N-(2-carboxybenzoyl)-2,2-dimethylthiazolidine]	210 ohm	3000 ohm	7100 ohm	210 Ω	3000 Ω	about 7100 Ω	620 ohm	6500 ohm	3380 ohm		
CC1(C)SCCN1C(=O)CCC(=O)O [Example 3, N-(2-carboxylethylcarbonyl)-2,2-dimethylthiazolidine]		3600 ohm	4160 ohm		3600 Ω	about 4160 Ω				280* ohm	280 Ω

Reference: patent US6534659B2, “Sufidomaidocarboxylic acids, method for production thereof, and use therefor” (Nippon Shokubai Co., Ltd., priority 2000, dated 2003)
